The values below are quoted from earlier work in paper PMC9316761, “Thiosemicarbazide-Substituted Coumarins as Selective Inhibitors of the Tumor Associated Human Carbonic Anhydrases IX and XII” (Molecules, 2022).

Amino acid sequences for entries named in this document (tags omitted). Residues count along the entry.
UniProt O43570, 25-354: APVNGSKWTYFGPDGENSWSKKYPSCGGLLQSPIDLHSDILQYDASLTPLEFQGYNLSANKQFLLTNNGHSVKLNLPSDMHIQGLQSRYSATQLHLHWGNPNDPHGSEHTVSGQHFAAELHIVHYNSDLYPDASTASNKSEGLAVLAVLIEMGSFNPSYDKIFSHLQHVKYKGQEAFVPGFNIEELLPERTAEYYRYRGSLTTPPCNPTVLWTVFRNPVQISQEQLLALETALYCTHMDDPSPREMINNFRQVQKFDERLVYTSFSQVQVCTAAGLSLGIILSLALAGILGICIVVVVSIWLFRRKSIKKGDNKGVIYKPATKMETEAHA

In general, Ki refers to the dissociation constant of the complex between target and ligand, obtained from inhibition or displacement.

The target of data set [1] is T1, hCA IX (Homo sapiens, UniProt Q16790).
T1 construct: made in house
Also on record: method as in PMID 19206230. The following applies: cited from earlier work.

Data set [2] addresses hCA XII (Homo sapiens, UniProt O43570). The following applies: read-out: hCA XII (Ki; nM); reference coumarin; cited from earlier work.

SMILES strings stand for the structures.

In the case of `O=c1ccc2ccccc2o1` [COU, coumarin], the Ki in data set [1] and in data set [2] was greater than 10000 nM throughout.
